Laboratory results reported in patent publication US20120070442A1, “METHODS AND COMPOSITIONS FOR TREATING CANCER” (The Regents of the University of Colorado, a body corporate, priority 2007, published 2012).
Where two headings read alike, the source gives them in different places. Marks after values point to notes of the source that are not given here.

How the values were obtained:
EGFR mRNA = assay type: cell-based, human; conditions: 72 hours
miR-128b = conditions: 72 hours
[1] = test system: NSCLC cell lines A549, H358, H157, H3255, H520, Colo699; assay: MTT growth inhibition of NSCLC cells; assay type: cell-based, human; conditions: cetuximab alone, tested NSCLC cell lines, 72 hour incubation
Method: Gefitinib was provided by Astra-Zeneca Pharmaceuticals and Cetuximab was provided by ImClone Systems, Inc. (New York, N.Y.). […] Cetuximab stock solution was supplied at a concentration of 2 mg/mL and formulated in a preservative-free solution containing 8.48 mg/mL sodium chloride, 1.88 mg/mL sodium phosphate dibasic heptahydrate, 0.41 mg/mL sodium phosphate monobasic monohydrate, and water. Prior to use, drug stocks were diluted in fresh media. […] Cells were seeded in 96-well flat bottomed plates (Corning Inc., Corning, N.Y.) in 50 μL RPMI media supplemented with 10% heat-inactivated fetal bovine serum followed by transfection with miR-128b mimic or inhibitor (HiPerfect Transfection Reagent, Qiagen, Valencia, Calif.) at least 6 hours after seeding to bring total volume to 100 μL. […] An absorbance at 490 nm of 0.1-0.4 was sought. The optimum numbers of cells seeded to achieve this range were determined to be 5,000 cells for A549, H358, and H157 cell lines, and 5,000 to 7,500 cells for H3255, H520, and Colo699 cell lines. […] Tetrazolium salt was added at a concentration of 0.4 mg/mL to each well following the 72 hour incubation. The plates were then incubated with the salt for 4 hours at 37° C. […] The absorbency of each well was measured using an automated plate reader (Molecular Devices, Sunnyvale, Calif.).

COc1cc2ncnc(Nc3ccc(F)c(Cl)c3)c2cc1OCCCN1CCOCC1 [Gefitinib, N-(3-chloro-4-fluoro-phenyl)-7-methoxy-6-(3-morpholin-4-ylpropoxy)quinazolin-4-amine]
EGFR qRT PCR relative to control (1.0) (EGFR mRNA; A549, gefitinib <IC50): 1.3^‡
EGFR qRT PCR relative to control (1.0) (EGFR mRNA; A549, gefitinib >IC50): 0.7^γ
EGFR qRT PCR relative to control (1.0) (EGFR mRNA; Colo699, gefitinib <IC50): 0.9
EGFR qRT PCR relative to control (1.0) (EGFR mRNA; Colo699, gefitinib >IC50): 1.2
EGFR qRT PCR relative to control (1.0) (EGFR mRNA; H157, gefitinib <IC50): 0.5
EGFR qRT PCR relative to control (1.0) (EGFR mRNA; H157, gefitinib >IC50): 0.5
EGFR qRT PCR relative to control (1.0) (EGFR mRNA; H358, gefitinib <IC50): 1.3
EGFR qRT PCR relative to control (1.0) (EGFR mRNA; H358, gefitinib >IC50): 1.6
EGFR qRT PCR relative to control (1.0) (EGFR mRNA; H520, gefitinib <IC50): 1.6
EGFR qRT PCR relative to control (1.0) (EGFR mRNA; H520, gefitinib >IC50): 3.9
EGFR qRT PCR relative to control (1.0) (EGFR mRNA; H3255, gefitinib <IC50): 1.1
EGFR qRT PCR relative to control (1.0) (EGFR mRNA; H3255, gefitinib >IC50): 0.8
miR-128b qRT PCR relative to control (1.0) (miR-128b; A549, gefitinib <IC50): 0.0
miR-128b qRT PCR relative to control (1.0) (miR-128b; A549, gefitinib >IC50): 6.4
miR-128b qRT PCR relative to control (1.0) (miR-128b; Colo699, gefitinib <IC50): 0.0
miR-128b qRT PCR relative to control (1.0) (miR-128b; Colo699, gefitinib >IC50): 0.0
miR-128b qRT PCR relative to control (1.0) (miR-128b; H157, gefitinib <IC50): 0.1
miR-128b qRT PCR relative to control (1.0) (miR-128b; H157, gefitinib >IC50): 2.5
miR-128b qRT PCR relative to control (1.0) (miR-128b; H358, gefitinib <IC50): 1.5
miR-128b qRT PCR relative to control (1.0) (miR-128b; H358, gefitinib >IC50): 0.5
miR-128b qRT PCR relative to control (1.0) (miR-128b; H520, gefitinib <IC50): 25.1
miR-128b qRT PCR relative to control (1.0) (miR-128b; H520, gefitinib >IC50): 157.0
miR-128b qRT PCR relative to control (1.0) (miR-128b; H3255, gefitinib <IC50): 2.7
miR-128b qRT PCR relative to control (1.0) (miR-128b; H3255, gefitinib >IC50): 30.9

cetuximab: Cetuximab provided by ImClone Systems, Inc.; stock solution 2 mg/mL
IC50 [1]: > 100 nM
